Measurements as given in patent US6613358B2, “Sustained-release composition including amorphous polymer” (priority 1998, dated 2003).

Tests used:
[1] = Apparent partition coefficient water/1-octanol upon SDS addition; settings: UV-visible absorption spectroscopy
[2] = assay type: physicochemical
Text: Larger proteins can also form complexes with SDS. […] At higher SDS concentrations, hGH redissolves, presumably via micellar solubilization. […] Other proteins can also form complexes with SDS. Bovine pancreatic trypsin inhibitor (BPTI) is a small basic protein (MW 5900) with a well defined and stable structure (Wlodawer et. al. (1984) J. Mol. Biol. 180:301-329, and (1987) J. Mol. Biol. 193:145-156). […] In TMP, the globular structure is compromised, as determined by CD spectroscopy. Apparently, TMP is a strong enough solvent to displace water from the hydration sphere and destabilize the structure of BPTI. This mechanism of protein denaturation has been described in detail by Arakawa and […] (1982) Biochemistry 21:6536-6544. and (1982) Biochemistry 21:6545-6552. Stoichiometric addition of SDS to human serum albumin (HSA) (MW 68 kD) produces precipitates as a hydrophobic ion pair complex is formed.

Row | Substance | partitioning into 1-octanol [1] | solubility in NMP [2]
1 | SDS-HSA complex: hydrophobic ion pair complex of human serum albumin with SDS | could not be detected | greater than 1 mg/ml
2 | HSA: human serum albumin (MW 68 kD) | – | less than 0.03 mg/ml
